The values that follow come from US20240025949A1, “Beta-Arrestin Effectors and Compositions and Methods of Use Thereof” (Trevena, Inc., priority 2021, published 2024).

Protein sequences, listed by entry. Tags and fused reporters are not part of them.
UniProt P25095, whole entry: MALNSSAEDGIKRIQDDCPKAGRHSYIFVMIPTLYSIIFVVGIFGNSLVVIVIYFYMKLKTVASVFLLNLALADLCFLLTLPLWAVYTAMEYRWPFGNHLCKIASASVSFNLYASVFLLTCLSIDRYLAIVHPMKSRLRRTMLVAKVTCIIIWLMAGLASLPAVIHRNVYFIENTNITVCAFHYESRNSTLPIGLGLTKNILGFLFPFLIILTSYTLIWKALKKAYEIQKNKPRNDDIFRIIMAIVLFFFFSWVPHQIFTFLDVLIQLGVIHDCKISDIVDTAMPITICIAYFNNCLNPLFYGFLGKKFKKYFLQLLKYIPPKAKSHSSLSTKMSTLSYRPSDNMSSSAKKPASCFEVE

What all share (assay type): cell-based
For test [1], the target named is T1, human AT1R (Homo sapiens, UniProt P30556).
T1 construct: ProLink (β-galactosidase enzyme-donor fragment, from the pCMV-ProLink vector)
In words: IP1 accumulation assay (IP-One Tb), human AT1R. The note with it: cells expressing human AT1R; for human AT1R IP One EC50 (M): inactive = EC50 greater than 10 uM.

Test [2] addresses T2, rat AT1aR (Rattus norvegicus, UniProt P25095).
T2 construct: ProLink (β-galactosidase enzyme-donor fragment, from the pCMV-ProLink vector)
The experiment in a line: PathHunter β-arrestin-2 recruitment assay, rat AT1aR. The note with it: PathHunter β-arrestin HEK293 cells.

The target of test [3] is T1, human AT1R. The experiment in a line: PathHunter β-arrestin-2 recruitment assay, human AT1R. The settings on record: PathHunter β-arrestin HEK293 cells.
The target of test [4] is T2, rat AT1aR. In words: IP1 accumulation assay (IP-One Tb), rat AT1aR. The settings on record: cells expressing rat AT1aR; for rat AT1aR IP One EC50 (M): inactive = EC50 greater than 10 uM.

`CC[C@H](C)[C@H](NC(=O)[C@@H]1CCCN1C(=O)[C@H](Cc1c[nH]cn1)NC(=O)[C@@H](NC(=O)[C@H](Cc1ccc(O)cc1)NC(=O)[C@@H](NC(=O)[C@H](CCCNC(=N)N)NC(=O)CNC)C(C)C)C(C)C)C(=O)O` [compound 11]: in test [1], the “human AT1R IP One EC50 (M)” value is “inactive”. For the same molecule, the “rat AT1aR b-arrestin2 Max (%)” value in test [2] was found to be 80.7%. Also, the “human AT1R b-arrestin2 Max (%)” value in test [3] is 58.9%. The “rat AT1aR IP One Max (%)” value in test [4] came to 24.4%.
With `CNCC(=O)N[C@@H](CCCNC(=N)N)C(=O)N[C@H](C(=O)N[C@@H](Cc1ccc(O)cc1)C(=O)N[C@@H](Cc1ccc(O)cc1)C(=O)N[C@@H](Cc1c[nH]cn1)C(=O)N1CCC[C@H]1C(N)=O)C(C)C` [compound 26], the “human AT1R IP One EC50 (M)” value in test [1] was “inactive”. For the same molecule, the “rat AT1aR b-arrestin2 Max (%)” value in test [2] is 77.3%. The “human AT1R b-arrestin2 Max (%)” value in test [3] came out at 51.9%. The “rat AT1aR IP One EC50 (M)” value in test [4] is given as “Inactive”.
On the same counts, the results for `CC[C@H](C)[C@H](NC(=O)[C@H](Cc1cc(Br)c(O)c(Br)c1)NC(=O)[C@@H](NC(=O)[C@H](CCCNC(=N)N)NC(=O)CNC)C(C)C)C(=O)N[C@@H](Cc1c[nH]cn1)C(=O)N1CCC[C@H]1C(=O)N[C@H](C)C(=O)O` [compound 74] are “inactive”, 59.0%, 47.8% and “Inactive”.
Take `CCC[C@H](NC(=O)[C@@H]1CCCN1C(=O)[C@H](Cc1c[nH]cn1)NC(=O)[C@@H](NC(=O)[C@H](Cc1ccc(O)cc1)NC(=O)[C@@H](NC(=O)[C@H](CCCNC(=N)N)NC(=O)CNC)C(C)C)[C@@H](C)CC)C(=O)O` [compound 35]: in test [1], the “human AT1R IP One Max (%)” value worked out at 7.1%. Besides, in test [2], the “rat AT1aR b-arrestin2 Max (%)” value turned out to be 79.8%. For the same molecule, the “human AT1R b-arrestin2 Max (%)” value in test [3] stood at 67.9%. Further, the “rat AT1aR IP One Max (%)” value in test [4] is listed as 30.5%.
For the molecule `CC[C@H](C)[C@H](NC(=O)[C@H](Cc1cc([N+](=O)[O-])c(O)c([N+](=O)[O-])c1)NC(=O)[C@@H](NC(=O)[C@H](CCCNC(=N)N)NC(=O)CNC)C(C)C)C(=O)N[C@@H](Cc1c[nH]cn1)C(=O)N1CCC[C@H]1C(=O)N[C@H](C)C(=O)O` [compound 73], the “human AT1R IP One EC50 (M)” value in test [1] was “inactive”. Besides, in test [2], the “rat AT1aR b-arrestin2 Max (%)” value came out at 77.4%. Also, in test [3], the “human AT1R b-arrestin2 Max (%)” value was 46.8%. In addition, the “rat AT1aR IP One Max (%)” value in test [4] was 20.8%.
`CC[C@H](C)[C@H](NC(=O)[C@H](Cc1cc(I)c(O)c(I)c1)NC(=O)[C@@H](NC(=O)[C@H](CCCNC(=N)N)NC(=O)CNC)C(C)C)C(=O)N[C@@H](Cc1c[nH]cn1)C(=O)N1CCC[C@H]1C(=O)N[C@H](C)C(=O)O` [compound 85]: the “rat AT1aR b-arrestin2 Max (%)” value in test [2] is reported as 75.5%. The “human AT1R b-arrestin2 Max (%)” value in test [3] is 51.1%. For the same molecule, the “rat AT1aR IP One Max (%)” value in test [4] was found to be 23.4%.
For `CCC[C@H](NC(=O)[C@H](Cc1ccc(O)cc1)NC(=O)[C@@H](NC(=O)[C@H](CCCNC(=N)N)NC(=O)CNC)C(C)C)C(=O)N[C@@H](Cc1c[nH]cn1)C(=O)N1CCC[C@H]1C(=O)N[C@H](C)C(=O)O` [compound 83], the “human AT1R IP One EC50 (M)” value in test [1] was “inactive”. For the same molecule, the “rat AT1aR b-arrestin2 Max (%)” value in test [2] was 70.2%. The “human AT1R b-arrestin2 Max (%)” value in test [3] amounted to 34.3%. Further, in test [4], the “rat AT1aR IP One EC50 (M)” value is reported as “Inactive”.
For the molecule `CC[C@H](C)[C@H](NC(=O)[C@H](Cc1ccc(OC)cc1)NC(=O)[C@@H](NC(=O)[C@H](CCCNC(=N)N)NC(=O)CNC)C(C)C)C(=O)N[C@@H](Cc1c[nH]cn1)C(=O)N1CCC[C@H]1C(=O)N[C@@H](C)C(=O)O` [compound 29], the “human AT1R IP One EC50 (M)” value in test [1] was “inactive”. Moreover, the “rat AT1aR b-arrestin2 Max (%)” value in test [2] is listed as 64.8%. Besides, the “human AT1R b-arrestin2 Max (%)” value in test [3] is 43.3%. The “rat AT1aR IP One EC50 (M)” value in test [4] is given as “Inactive”.
On the same counts, the results for `CC[C@H](C)[C@H](NC(=O)[C@H](Cc1ccc(O)c(O)c1)NC(=O)[C@@H](NC(=O)[C@H](CCCNC(=N)N)NC(=O)CNC)C(C)C)C(=O)N[C@@H](Cc1c[nH]cn1)C(=O)N1CCC[C@H]1C(=O)N[C@H](C)C(=O)O` [compound 67] are “inactive”, 117%, 100.6% and “Inactive”.
In the case of `CNCC(=O)N[C@@H](CCCNC(=N)N)C(=O)N[C@H](C(=O)N[C@@H](Cc1ccc(O)cc1)C(=O)N[C@@H](CCCNC(=N)N)C(=O)N[C@@H](Cc1c[nH]cn1)C(=O)N1CCC[C@H]1C(=O)N[C@@H](C)C(=O)O)C(C)C` [compound 24], in test [1], the “human AT1R IP One EC50 (M)” value is “inactive”. Besides, the “rat AT1aR b-arrestin2 Max (%)” value in test [2] amounted to 74.1%. The “human AT1R b-arrestin2 Max (%)” value in test [3] came out at 61.3%. The “rat AT1aR IP One Max (%)” value in test [4] turned out to be 15.1%.
Consider `CC(C)[C@H](NC(=O)[C@H](CCCNC(=N)N)NC(=O)[C@@H](N)CCC(=O)O)C(=O)N[C@@H](Cc1ccc(O)cc1)C(=O)N[C@@H](Cc1ccc(O)cc1)C(=O)N[C@@H](Cc1c[nH]cn1)C(=O)N1CCC[C@H]1C(N)=O` [compound 59], for which the “human AT1R IP One EC50 (M)” value in test [1] is “inactive”. Moreover, the “rat AT1aR b-arrestin2 Max (%)” value in test [2] is 27.84%. Also, the “human AT1R b-arrestin2 Max (%)” value in test [3] came out at 19.49%. For the same molecule, the “rat AT1aR IP One EC50 (M)” value in test [4] is given as “Inactive”.
Regarding `CNCC(=O)N[C@@H](CCCNC(=N)N)C(=O)N[C@H](C(=O)N[C@@H](Cc1ccc(O)cc1)C(=O)N[C@@H](CCCCN)C(=O)N[C@@H](Cc1c[nH]cn1)C(=O)N1CCC[C@H]1C(=O)N[C@@H](C)C(=O)O)C(C)C` [compound 23], the “human AT1R IP One EC50 (M)” value in test [1] is “inactive”. Also, the “rat AT1aR b-arrestin2 Max (%)” value in test [2] was determined as 84.9%. The “human AT1R b-arrestin2 Max (%)” value in test [3] is 61.2%. For the same molecule, in test [4], the “rat AT1aR IP One Max (%)” value is listed as 10.3%.
On the same counts, the results for `CC(C)[C@H](NC(=O)[C@H](CCCNC(=N)N)NC(=O)CN(C)C)C(=O)N[C@@H](Cc1ccc(O)cc1)C(=O)N[C@H](C(=O)N[C@@H](Cc1c[nH]cn1)C(=O)N1CCC[C@H]1C(=O)N[C@@H](C)C(=O)O)C(C)C` [compound 31] are “inactive”, 75.9%, 58.1% and 6.2%.
With `CC[C@H](C)[C@H](NC(=O)[C@H](Cc1ccc(F)cc1)NC(=O)[C@@H](NC(=O)[C@H](CCCNC(=N)N)NC(=O)CNC)C(C)C)C(=O)N[C@@H](Cc1c[nH]cn1)C(=O)N1CCC[C@H]1C(=O)N[C@H](C)C(=O)O` [compound 70], in test [1], the “human AT1R IP One EC50 (M)” value is “inactive”. Also, the “rat AT1aR b-arrestin2 Max (%)” value in test [2] is 55.6%. In addition, in test [3], the “human AT1R b-arrestin2 Max (%)” value stood at 29.1%. For the same molecule, the “rat AT1aR IP One EC50 (M)” value in test [4] is reported as “Inactive”.
On to `CC[C@H](C)[C@H](NC(=O)[C@@H]1CCCN1C(=O)[C@H](Cc1c[nH]cn1)NC(=O)[C@@H](NC(=O)[C@@H](NC(=O)[C@@H](NC(=O)[C@H](CCCNC(=N)N)NC(=O)CNC)C(C)C)[C@@H](C)CC)[C@@H](C)CC)C(N)=O` [compound 2], for which, in test [1], the “human AT1R IP One EC50 (M)” value is “inactive”. For the same molecule, in test [2] (inactive = EC50 greater than 10 uM), the “rat AT1aR b-arrestin2 EC50 (M)” value was “inactive”. In addition, the “human AT1R b-arrestin2 Max (%)” value in test [3] amounted to 24.9%. In addition, in test [4], the “rat AT1aR IP One Max (%)” value worked out at 33.8%.
`CNCC(=O)N[C@@H](CCCNC(=N)N)C(=O)N[C@H](C(=O)N[C@@H](Cc1ccc(O)cc1)C(=O)N[C@@H](Cc1ccc(O)cc1)C(=O)N[C@@H](Cc1c[nH]cn1)C(=O)N1CCC[C@H]1C(=O)N[C@@H](C)C(=O)O)C(C)C` [compound 19]: the “human AT1R IP One EC50 (M)” value in test [1] is “inactive”. For the same molecule, in test [2], the “rat AT1aR b-arrestin2 Max (%)” value was 91.2%. Moreover, the “human AT1R b-arrestin2 Max (%)” value in test [3] came to 67.9%. Moreover, the “rat AT1aR IP One EC50 (M)” value in test [4] was “Inactive”.
On to `CC[C@H](C)[C@H](NC(=O)[C@H](Cc1ccc(O)cc1)NC(=O)[C@@H](NC(=O)[C@H](CCCNC(=N)N)NC(=O)CNC)C(C)C)C(=O)N[C@@H](Cc1c[nH]cn1)C(=O)N1CCC[C@H]1C(=O)N[C@@H](C)C(=O)O` [compound 9], for which the “human AT1R IP One EC50 (M)” value in test [1] is “inactive”. Besides, in test [2], the “rat AT1aR b-arrestin2 Max (%)” value is 74.0%. Besides, the “rat AT1aR IP One Max (%)” value in test [4] is recorded as 9.5%.
Turning to `CC(C)[C@H](NC(=O)[C@H](CCCNC(=N)N)NC(=O)[C@@H](N)CCC(=O)O)C(=O)N[C@@H](Cc1ccc(O)cc1)C(=O)N[C@@H](Cc1ccccc1)C(=O)N[C@@H](Cc1c[nH]cn1)C(=O)N1CCC[C@H]1C(N)=O` [compound 64], the “human AT1R IP One EC50 (M)” value in test [1] is “inactive”. In addition, the “rat AT1aR b-arrestin2 Max (%)” value in test [2] was 26.95%. Also, in test [3], the “human AT1R b-arrestin2 Max (%)” value is 20.39%. Also, the “rat AT1aR IP One EC50 (M)” value in test [4] is “Inactive”.
On to `CNCC(=O)N[C@@H](CCCNC(=N)N)C(=O)N[C@H](C(=O)N[C@@H](Cc1ccc(O)cc1)C(=O)N[C@H](C(=O)N[C@@H](Cc1c[nH]cn1)C(=O)N1CCC[C@H]1C(=O)N[C@@H](C)C(=O)O)C(C)C)C(C)C` [compound 7], for which the “human AT1R IP One EC50 (M)” value in test [1] is “inactive”.
As for `CC[C@H](C)[C@H](NC(=O)[C@H](Cc1ccc(O)cc1)NC(=O)[C@@H](NC(=O)[C@H](CCCNC(=N)N)NC(=O)CNC)C(C)C)C(=O)N[C@@H](Cc1c[nH]cn1)C(=O)N1CCC[C@H]1C(=O)N[C@@H](C)C(N)=O` [compound 10], the “human AT1R IP One EC50 (M)” value in test [1] is “inactive”. Besides, in test [2], the “rat AT1aR b-arrestin2 Max (%)” value was 60.3%. In test [4], the “rat AT1aR IP One Max (%)” value is reported as 13.3%.
